Results reported in patent publication US20110045517A1, “Toxic Material Detection Apparatus and Method” (published 2011).

The chains behind the UniProt entries cited, without tags or fusion partners. Residues count along the entry.
UniProt P81908, whole entry: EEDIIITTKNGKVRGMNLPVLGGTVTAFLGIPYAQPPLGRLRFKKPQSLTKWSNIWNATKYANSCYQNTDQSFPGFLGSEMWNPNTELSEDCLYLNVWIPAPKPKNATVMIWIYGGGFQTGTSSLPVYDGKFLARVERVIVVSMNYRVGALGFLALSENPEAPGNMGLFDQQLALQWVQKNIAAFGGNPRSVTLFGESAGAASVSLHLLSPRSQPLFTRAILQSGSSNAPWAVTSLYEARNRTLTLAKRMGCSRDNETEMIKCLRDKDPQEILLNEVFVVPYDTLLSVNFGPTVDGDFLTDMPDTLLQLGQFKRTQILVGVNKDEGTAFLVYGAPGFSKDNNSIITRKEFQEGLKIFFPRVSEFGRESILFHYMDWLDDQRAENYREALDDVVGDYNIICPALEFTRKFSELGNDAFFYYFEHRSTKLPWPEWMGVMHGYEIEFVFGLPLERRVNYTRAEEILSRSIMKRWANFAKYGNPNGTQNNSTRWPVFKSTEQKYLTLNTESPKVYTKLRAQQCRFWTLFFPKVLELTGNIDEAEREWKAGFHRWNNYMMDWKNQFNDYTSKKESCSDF
UniProt P22303, 32-614 limits assumed: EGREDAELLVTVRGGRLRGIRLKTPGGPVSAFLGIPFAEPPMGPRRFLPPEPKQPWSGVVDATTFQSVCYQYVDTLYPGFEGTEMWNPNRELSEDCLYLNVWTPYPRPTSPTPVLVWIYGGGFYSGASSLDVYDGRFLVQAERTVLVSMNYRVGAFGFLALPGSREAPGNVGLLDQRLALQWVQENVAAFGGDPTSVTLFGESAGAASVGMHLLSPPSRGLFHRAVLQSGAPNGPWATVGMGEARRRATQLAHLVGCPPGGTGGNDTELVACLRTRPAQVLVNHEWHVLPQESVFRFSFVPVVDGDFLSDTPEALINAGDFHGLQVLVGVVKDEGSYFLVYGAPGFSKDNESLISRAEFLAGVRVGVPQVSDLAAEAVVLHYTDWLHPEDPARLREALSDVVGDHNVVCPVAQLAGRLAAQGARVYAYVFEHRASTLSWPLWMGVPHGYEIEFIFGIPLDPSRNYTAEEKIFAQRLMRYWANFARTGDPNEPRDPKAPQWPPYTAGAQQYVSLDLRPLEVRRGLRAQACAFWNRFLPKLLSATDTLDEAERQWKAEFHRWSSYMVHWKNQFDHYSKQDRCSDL

What was measured:
[1] = molecular target: equine butyrylcholinesterase (BChE) (Equus caballus, UniProt P81908); experiment: Enzymatic colorimetric test, Phenol Red pH indicator, BCI substrate; details: Enzyme/Agent Time 0.5
human AChE = human AChE (Homo sapiens, UniProt P22303); experiment: Cholinesterase inhibition colorimetric test with AChE, ATCI and DTNB; details: DTNB; substrate ATCI; Enzyme/Agent Time 0.5

| Structure (SMILES) | Amount Detected [1] | Amount Detected (human AChE) [ng] |
| --- | --- | --- |
| CCOP(=S)(OCC)Oc1ccc([N+](=O)[O-])cc1 | 500,000 ng | >100 |
| COP(N)(=O)SC (stereo not shown) | 290,000 ng | >100 |
